The source of these data is paper PMC8397948, “Effect of Selected Antidepressants on Placental Homeostasis of Serotonin: Maternal and Fetal Perspectives” (Pharmaceutics, 2021).

The target in this assay is T1, OCT3 (Homo sapiens, UniProt O75751).
T1 construct: MVM and BM vesicles were used to evaluate the effects of antidepressants on SERT- and OCT3-mediated uptake of 5-HT, respectively; from tissue; host or cells: human term placenta, basal membrane (BM) vesicles
T1 sequence (O75751 1-556): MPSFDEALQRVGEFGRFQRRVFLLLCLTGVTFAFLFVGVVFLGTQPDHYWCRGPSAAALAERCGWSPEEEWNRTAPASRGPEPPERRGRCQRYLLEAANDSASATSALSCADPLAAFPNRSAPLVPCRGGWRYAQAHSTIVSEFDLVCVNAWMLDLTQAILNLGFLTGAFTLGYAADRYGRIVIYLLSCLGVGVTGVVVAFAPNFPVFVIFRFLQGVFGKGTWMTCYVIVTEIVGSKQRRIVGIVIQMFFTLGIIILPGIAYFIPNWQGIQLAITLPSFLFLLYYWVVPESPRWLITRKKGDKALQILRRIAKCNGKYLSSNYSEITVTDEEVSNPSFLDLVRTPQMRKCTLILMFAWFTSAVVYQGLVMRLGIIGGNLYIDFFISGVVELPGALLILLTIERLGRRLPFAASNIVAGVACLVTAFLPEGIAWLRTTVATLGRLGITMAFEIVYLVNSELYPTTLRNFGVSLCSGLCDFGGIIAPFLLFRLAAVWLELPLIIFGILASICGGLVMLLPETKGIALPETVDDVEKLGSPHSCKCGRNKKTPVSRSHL
Put plainly: [3H]5-HT uptake by basal membrane (BM) vesicles from human term placenta. In kind it is biochemical.

Counter-ions that a name gives are not always drawn.

Regarding `CN(C)CCCC1(c2ccc(F)cc2)OCc2cc(C#N)ccc21` (centres unmarked) [Citalopram, citalopram hydrobromide], the IC50 came out at 15.1 nM.

In the case of `COc1ccc(C(CN(C)C)C2(O)CCCCC2)cc1` (centres unmarked) [Venlafaxine, venlafaxine hydrochloride], the midpoint of inhibition, the IC50, lay at 30.8 nM.
